Experiments:
Escherichia coli [1] = experiment: Antimicrobial activity against Escherichia coli AB1157 assessed as reduction in colony formation at 1 mM; format: organism-based; settings: in vivo, 1000 µM
Escherichia coli [2] = experiment: Induction of sensitization to irradiation in Escherichia coli AB1157 under oxic condition assessed as reduction in colony formation at 1 mM measured after irradiation; format: organism-based; settings: in vivo, 1000 µM
[3] = Dissociation constant, pKa of the compound

O=[N+]([O-])c1cnc([N+](=O)[O-])[nH]1
Activity (Escherichia coli [1]): Non-toxic | Activity (Escherichia coli [2]): Toxic | pKa [3]: 2.86
